# Source: publication PMC11126936, “Reactivating Hippo by drug compounds to suppress gastric cancer and enhance chemotherapy sensitivity” (The Journal of Biological Chemistry, 2024)
# Chains of the proteins cited; added tags and fusions are not shown. Residues count along the entry.
# UniProt P30153, 8-589: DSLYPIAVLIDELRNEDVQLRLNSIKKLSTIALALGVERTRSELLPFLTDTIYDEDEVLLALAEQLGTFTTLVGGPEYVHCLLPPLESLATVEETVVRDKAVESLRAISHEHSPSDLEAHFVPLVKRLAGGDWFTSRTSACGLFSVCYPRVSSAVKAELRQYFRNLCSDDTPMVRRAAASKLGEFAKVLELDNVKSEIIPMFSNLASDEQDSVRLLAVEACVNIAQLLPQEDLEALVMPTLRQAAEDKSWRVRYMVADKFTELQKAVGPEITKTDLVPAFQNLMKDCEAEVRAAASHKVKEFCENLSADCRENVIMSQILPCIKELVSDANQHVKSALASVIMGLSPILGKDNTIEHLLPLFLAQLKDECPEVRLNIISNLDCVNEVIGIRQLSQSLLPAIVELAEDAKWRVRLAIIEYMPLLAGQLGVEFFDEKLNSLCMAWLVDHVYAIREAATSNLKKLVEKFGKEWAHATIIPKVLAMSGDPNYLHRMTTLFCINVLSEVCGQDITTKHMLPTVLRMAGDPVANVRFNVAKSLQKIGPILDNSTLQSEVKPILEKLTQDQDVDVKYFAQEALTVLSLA
# Where “and” joins values, the source holds several entries; their conditions need not be identical. Equal entries are not always repeated. Structures can show the parent of a compound that is named as a salt.
# Legend:
# PP2Aa–STRN3 interaction = PP2Aa–STRN3 interaction (Homo sapiens, UniProt P30153); assay: Second-round validation AlphaScreen, PP2Aa–STRN3 disruption (Table S2); format: binding; design: GST; SUMO; made in house; host or cells: E. coli BL21 Codon plus (DE3); conditions: 2nd round validation screen
# [1] = Second-round AlphaScreen false-positive control with biotin-labeled and His-tagged STRN3 (Table S2)
# [2] = Second-round AlphaScreen false-positive control (Table S4); conditions: 2nd round validation screen, STRN3-MST2; disruption of protein-bead interactions
# [3] = 2nd round validation screen, STRN3-PP2Aa, disruption of protein-bead interactions
compound,measurement,setting,value
CC(C)(O)CNc1nc(Nc2ccnc(C(F)(F)F)c2)nc(-c2cccc(C(F)(F)F)n2)n1 [Enasidenib],Inhibition rate (%),PP2Aa–STRN3 interaction,-8.372%
same,False positive rate (%),[1]; [3],-5.133%
COC(=O)C1=C(C)NC(C)=C(C(=O)OC(C)(C)CN(C)CCC(c2ccccc2)c2ccccc2)C1c1cccc([N+](=O)[O-])c1 (stereo not shown) [Lercanidipine],Inhibition rate (%),PP2Aa–STRN3 interaction,40.7176%
same,False positive rate (%),[1]; [3],39.4625%
CCN(CCO)CCCOc1ccc2c(Nc3cc(CC(=O)Nc4cccc(F)c4)n[nH]3)ncnc2c1 [AZD1152HQPA],Inhibition rate (%),PP2Aa–STRN3 interaction,15.3585%
same,False positive rate (%),[1]; [3],7.562%
O=C([O-])c1ccccc1[O-].[Bi+3].[OH-] [Bismuth subsalicylat],Inhibition rate (%),PP2Aa–STRN3 interaction,15.8787%
same,False positive rate (%),[1]; [3],-5.993%
O=c1c2ccccc2[se]n1-c1ccccc1 [Ebselen],Inhibition rate (%),PP2Aa–STRN3 interaction,57.2242%
same,False positive rate (%),[1]; [3],-8.079%
OC(CNc1ccccc1)Cn1c2ccc(Br)cc2c2cc(Br)ccc21 (stereo not shown) [P7C3],Inhibition rate (%),PP2Aa–STRN3 interaction,35.8997%
Cc1ccccc1C(=O)Nc1ccc(C(=O)N2CCCC(O)c3cc(Cl)ccc32)c(C)c1 (stereo not shown) [Tolvaptan],Inhibition rate (%),PP2Aa–STRN3 interaction,7.949%
same,False positive rate (%),[1]; [3],11.1343%
Cc1cc(-c2ccc(/N=N/c3ccc4c(S(=O)(=O)O)cc(S(=O)(=O)O)c(N)c4c3O)c(C)c2)ccc1/N=N/c1ccc2c(S(=O)(=O)O)cc(S(=O)(=O)O)c(N)c2c1O [Evans blue],Inhibition rate (%),PP2Aa–STRN3 interaction,84.0217%
same,False positive rate (%),[1]; [3],75.2692%
"CC(C)OC(=O)[C@H](C)N[P@](=O)(CO[C@H](C)Cn1cnc2c(N)ncnc21)Oc1ccccc1 [GS-7340 Tenofovir alafenamide, Tenofovir alafenamide]",Inhibition rate (%),PP2Aa–STRN3 interaction,4.026%
same,False positive rate (%),[1],2.988%
CCN(c1cc(C#CCN2CCOCC2)cc(C(=O)NCc2c(C)cc(C)[nH]c2=O)c1C)[C@H]1CC[C@H](N(C)CCOC)CC1 [EPZ011989],Inhibition rate (%),PP2Aa–STRN3 interaction,6.841%
same,False positive rate (%),[1]; [3],4.933%
CNC(=O)c1ccccc1Nc1nc(Nc2ccc(N3CCOCC3)cc2OC)ncc1Cl [TAE-226],Inhibition rate (%),PP2Aa–STRN3 interaction,28.5479%
COC(=O)/C=C/c1cccc(N(Cc2ccc(-c3ccc(N(C)C)cc3)cc2)C(=O)C2CCCCC2)c1 [fexaramine],Inhibition rate (%),PP2Aa–STRN3 interaction,61.1496%
same,False positive rate (%),[1]; [3],58.3424%
Chlorophyllin,Inhibition rate (%),PP2Aa–STRN3 interaction,68.6366%
same,False positive rate (%),[1]; [3],67.5653%
"COc1cc2c(Nc3ccc(Br)cc3F)ncnc2cc1OCC1CCN(C)CC1 [Vandetanib (ZD6474), Vandetanib]",Inhibition rate (%),PP2Aa–STRN3 interaction,2.039%
same,False positive rate (%),[1]; [3],-3.172%
COc1ccc(C(=C2C(=O)Nc3ccccc32)c2ccc(OC)cc2)cc1 [TAS-301],Inhibition rate (%),PP2Aa–STRN3 interaction,39.3492%
COc1cc2c(NC3CCN(CC4CCCCC4)CC3)nc(N3CCCN(C(C)C)CC3)nc2cc1OCCCN1CCCCC1 [UNC0631],Inhibition rate (%),PP2Aa–STRN3 interaction,56.3097%
same,False positive rate (%),[1]; [3],-14.7734%
Oc1cc2c(cc1O)C1c3ccc(O)c(O)c3OCC1(O)C2 (stereo not shown) [HAEMATOXYLIN],Inhibition rate (%),PP2Aa–STRN3 interaction,74.6512%
same,False positive rate (%),[1]; [3],31.7503%
O=[N+]([O-])c1ccc(O)c2ncccc12 [Nitroxoline],Inhibition rate (%),PP2Aa–STRN3 interaction,92.1175%
same,False positive rate (%),[1]; [3],76.3709%
NCCOc1cc(C(=O)Nc2cc(OCCN)c3ccccc3n2)nc(C(=O)Nc2cc(OCCN)c3ccccc3n2)c1 [Pyridostatin],Inhibition rate (%),PP2Aa–STRN3 interaction,5.296%
same,False positive rate (%),[1]; [3],16.6764%
COc1cccc(NCC(F)Cn2c3ccc(Br)cc3c3cc(Br)ccc32)c1 (stereo not shown) [P7C3-A20],Inhibition rate (%),PP2Aa–STRN3 interaction,22.2055%
CCN1c2cc(N)ccc2-c2ccc(N)cc2C1c1ccccc1 (stereo not shown) [Dihydroethidium],Inhibition rate (%),PP2Aa–STRN3 interaction,80.6971%
same,False positive rate (%),[1]; [3],78.082%
Glycerite,Inhibition rate (%),PP2Aa–STRN3 interaction,92.6795% and 88.283%
same,False positive rate (%),[1]; [3],69.5101% and 67.0896%
CC(=O)Oc1cc(C)c(OC(C)=O)c2ccccc12 [Menadiol Diacetate],Inhibition rate (%),PP2Aa–STRN3 interaction,-1.473%
same,False positive rate (%),[1]; [3],-3.581%
CCCOc1ccn2c(C(C)=O)cc(-c3ccccc3S(C)(=O)=O)c2c1 [GSK2801],Inhibition rate (%),PP2Aa–STRN3 interaction,-1.182%
same,False positive rate (%),[1]; [3],-9.031%
"COc1cc(N2CCC(N3CCN(C)CC3)CC2)ccc1Nc1ncc(Cl)c(Nc2ccccc2S(=O)(=O)C(C)C)n1 [TAE684 (NVP-TAE684), TAE684]",Inhibition rate (%),PP2Aa–STRN3 interaction,64.6668%
same,False positive rate (%),[1]; [3],55.1957%
O=C1c2c(O)ccc(O)c2C(=O)c2c(NCCNCCO)ccc(NCCNCCO)c21 [Mitoxantrone HCl],Inhibition rate (%),PP2Aa–STRN3 interaction,90.5827%
O=C(O[C@@H]1Cc2c(O)cc(O)cc2O[C@@H]1c1cc(O)c(O)c(O)c1)c1cc(O)c(O)c(O)c1 [EPIGALLOCATECHIN-3-MONOGALLATE],Inhibition rate (%),PP2Aa–STRN3 interaction,72.0758%
same,False positive rate (%),[1]; [3],62.6993%
O=C([O-])c1ccccc1-c1c2cc(Br)c(=O)cc-2oc2[c]([Hg+])c([O-])c(Br)cc12.[Na+].[Na+].[OH-] [Merbromin],Inhibition rate (%),PP2Aa–STRN3 interaction,77.9083%
"CCN(CC)C(=S)SSC(=S)N(CC)CC [DSF, disulfiram]",Inhibition rate (%),PP2Aa–STRN3 interaction,73.2412%
same,False positive rate (%),[1]; [3],31.6%
COc1cc(-c2ccc(N=Nc3ccc4c(S(=O)(=O)[O-])cc(S(=O)(=O)[O-])c(N)c4c3O)c(OC)c2)ccc1N=Nc1ccc2c(S(=O)(=O)[O-])cc(S(=O)(=O)[O-])c(N)c2c1O.[Na+].[Na+].[Na+].[Na+] [CHICAGO SKY BLUE 6B],Inhibition rate (%),PP2Aa–STRN3 interaction,96.9459%
same,False positive rate (%),[1]; [3],90.126%
O=C(/C=C/c1ccc2ccccc2n1)c1ccncc1 [PFK-015],Inhibition rate (%),PP2Aa–STRN3 interaction,5.405%
NNc1nncc2ccccc12 [Hydralazine HCl],False positive rate (%),[2],58.8651%
CC(=O)[O][Hg][c]1ccccc1 [Phenylmercuric acetate],Inhibition rate (%),PP2Aa–STRN3 interaction,95.0884%
same,False positive rate (%),[1],-7.3867%
COc1ccc(N(C(=O)Oc2c(C)cccc2C)c2ccnc(Nc3ccc(N4CCN(C)CC4)cc3)n2)c(OC)c1 [WH-4-023],Inhibition rate (%),PP2Aa–STRN3 interaction,34.4064%
6-BIO,Inhibition rate (%),PP2Aa–STRN3 interaction,82.3828%
COc1ccc(C(=O)O[C@H]2CC[C@@]3(C)[C@@H]4CC[C@H]5[C@]6(O)C[C@H](O)[C@@]7(O)[C@@H](CN8C[C@@H](C)CC[C@H]8[C@@]7(C)O)[C@]6(O)C[C@@]53O[C@]24O)cc1OC [Veratridine],Inhibition rate (%),PP2Aa–STRN3 interaction,73.6887%
